The target of the assay is cAMP and cAMP-inhibited cGMP 3',5'-cyclic phosphodiesterase 10A (Homo sapiens, UniProt Q9Y233). The assay is described as follows: Inhibition of recombinant full length human PDE10A by scintillation proximity assay in presence of cAMP.

Sequences of proteins named here, by UniProt entry; tags and fusion partners are left off. A change or cut given only in a name is not applied to a line headed by its entry.
UniProt Q9Y233: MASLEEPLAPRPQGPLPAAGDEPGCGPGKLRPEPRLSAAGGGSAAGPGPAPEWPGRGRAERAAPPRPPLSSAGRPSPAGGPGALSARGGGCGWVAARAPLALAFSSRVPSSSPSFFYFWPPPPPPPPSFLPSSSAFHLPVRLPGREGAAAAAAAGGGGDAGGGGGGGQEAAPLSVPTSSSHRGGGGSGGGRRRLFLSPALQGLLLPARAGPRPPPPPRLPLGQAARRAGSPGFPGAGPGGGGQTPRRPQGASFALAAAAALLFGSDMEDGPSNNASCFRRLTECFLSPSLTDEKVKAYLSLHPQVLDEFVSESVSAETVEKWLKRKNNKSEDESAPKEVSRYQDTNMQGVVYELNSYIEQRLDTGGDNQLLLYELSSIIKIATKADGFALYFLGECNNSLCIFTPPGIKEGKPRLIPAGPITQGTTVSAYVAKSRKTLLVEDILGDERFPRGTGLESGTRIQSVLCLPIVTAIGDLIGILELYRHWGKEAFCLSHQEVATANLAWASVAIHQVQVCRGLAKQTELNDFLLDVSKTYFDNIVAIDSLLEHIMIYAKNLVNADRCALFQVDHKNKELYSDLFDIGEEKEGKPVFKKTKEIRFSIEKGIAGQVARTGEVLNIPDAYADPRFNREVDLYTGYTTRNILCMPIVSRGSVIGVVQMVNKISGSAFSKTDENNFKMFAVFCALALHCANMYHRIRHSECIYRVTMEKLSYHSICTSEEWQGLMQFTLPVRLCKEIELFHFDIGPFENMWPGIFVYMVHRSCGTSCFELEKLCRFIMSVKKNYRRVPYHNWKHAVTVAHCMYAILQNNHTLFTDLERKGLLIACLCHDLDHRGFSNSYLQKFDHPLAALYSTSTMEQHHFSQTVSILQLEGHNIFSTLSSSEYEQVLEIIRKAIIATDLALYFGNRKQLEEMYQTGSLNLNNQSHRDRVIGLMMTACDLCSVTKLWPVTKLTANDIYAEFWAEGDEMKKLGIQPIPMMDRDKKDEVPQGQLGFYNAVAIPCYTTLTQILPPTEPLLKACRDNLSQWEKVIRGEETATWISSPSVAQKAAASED

In general, IC50 refers to the concentration that gives 50% inhibition. In the case of `COc1ccc(Cc2nccc3cc(OC)c(OC)cc23)cc1OC` [PAPAVERINE], the IC50 came out at 92.3 nM.
